Results from patent US20190008957A1, “COMBINATION THERAPIES INCLUDING INHIBITORS OF THE EXTRACELLULAR DOMAIN OF E-CADHERIN” (The Research Foundation for The State of New York, priority 2012, published 2019).

What was measured:
[1] = system: HER2 overexpressing BT474 cells; details: cited from earlier work
[2] = system: HER2-positive Trastuzumab-resistant SUM190PT cell line; details: cited from earlier work
HER1, HER2, IGF-1R = assay: Western blot of receptor phosphorylation in skin and oropharyngeal SCC cell lines; format: cell-based; details: PAM212 cells

| Compound | survivin expression [1] | survivin and XIAP levels [2] | sEcad-induced HER1 phosphorylation (HER1, HER2, IGF-1R) | sEcad-induced HER2 phosphorylation (pHER2) (HER1, HER2, IGF-1R) | phospho-IGF-1R levels (HER1, HER2, IGF-1R; in the presence of sEcad, compared to corresponding controls) |
| --- | --- | --- | --- | --- | --- |
| Trastuzumab: recombinant humanized monoclonal antibody against the extracellular domain of HER2 | little effect on steady-state survivin levels | induced the upregulation of both survivin and XIAP | – | – | – |
| COc1cc2ncnc(Nc3ccc(F)c(Cl)c3)c2cc1OCCCN1CCOCC1 [Gefitinib] | – | – | decreased | only minimal effects | did not alter |
